Data as given in US20250205200A1, “5-METHOXY-N,N-[…][…] THE TREATMENT OF […]” (GH RESEARCH IRELAND LIMITED, priority 2022, published 2025).
Read-outs that look alike come from different tables or passages of the source.

Amino acid sequences for entries named in this document (tags omitted).
UniProt P28223, whole entry: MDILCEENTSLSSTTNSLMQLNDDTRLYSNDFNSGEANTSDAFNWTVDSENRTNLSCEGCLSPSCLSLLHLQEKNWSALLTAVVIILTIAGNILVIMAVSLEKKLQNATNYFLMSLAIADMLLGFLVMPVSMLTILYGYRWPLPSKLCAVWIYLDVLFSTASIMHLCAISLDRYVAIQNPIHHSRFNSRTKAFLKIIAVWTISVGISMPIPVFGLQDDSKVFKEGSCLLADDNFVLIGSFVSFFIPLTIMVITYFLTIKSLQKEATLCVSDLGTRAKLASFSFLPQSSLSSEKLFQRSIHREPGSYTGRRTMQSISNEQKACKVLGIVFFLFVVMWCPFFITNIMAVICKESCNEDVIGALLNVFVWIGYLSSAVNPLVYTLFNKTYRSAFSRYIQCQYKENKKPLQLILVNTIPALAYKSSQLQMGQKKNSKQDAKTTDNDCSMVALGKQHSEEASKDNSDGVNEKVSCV

Experiments:
human hepatocytes [1] = assay: Metabolite identification of 5-MeO-DMT in human hepatocytes; assay type: in vitro ADME; conditions: 5-MeO-DMT free base 10 μM incubated up to 120 minutes
human hepatocytes [2] = assay: Metabolic stability in Hμrel human hepatocyte co-culture assay; assay type: in vitro ADME
5-HT2A receptors = biological target: T1, 5-HT2A receptors (Homo sapiens, UniProt P28223); assay: Radioligand binding ([3H]MDL-100,907) to 5-HT2A receptors in post-mortem human frontal cortex membranes; conditions: frontal cortical membranes, read-out: Dissociation constant (Kd) for 5-HT2A receptors
T1 construct: 5-HT1A and 5-HT2A receptors in post-mortem human brain tissue from the hippocampus and frontal cortex, respectively; tissue Edinburgh Sudden Death Brain Bank; host or cells: post-mortem human frontal cortex membranes

Question: Which results are given for “5-Methoxyindole acetic acid [5-Methoxyindole acetic acid (5-MIAA)]”?
Answer: Relative proportion of compounds identified (human hepatocytes [1]): 61%; Relative LC/MS peak area remaining (human hepatocytes [2]; 1 μM Hepatocytes, 1 h): 98%; Relative LC/MS peak area remaining (human hepatocytes [2]; 1 μM Hepatocytes, 2 h): 100%; Relative LC/MS peak area remaining (human hepatocytes [2]; 1 μM Hepatocytes, 4 h): 99%; Relative LC/MS peak area remaining (human hepatocytes [2]; 1 μM Hepatocytes, 8 h): 95%; Relative LC/MS peak area remaining (human hepatocytes [2]; 1 μM Hepatocytes, 24 h): 99%; Relative LC/MS peak area remaining (human hepatocytes [2]; 1 μM Hepatocytes, 48 h): 88%; Relative LC/MS peak area remaining (human hepatocytes [2]; 1 μM Hepatocytes, 72 h): 82%; Relative LC/MS peak area remaining (human hepatocytes [2]; 1 μM Stromal cells, 4 h): 103%; Relative LC/MS peak area remaining (human hepatocytes [2]; 1 μM Stromal cells, 8 h): 107%; Relative LC/MS peak area remaining (human hepatocytes [2]; 1 μM Stromal cells, 24 h): 108%; Relative LC/MS peak area remaining (human hepatocytes [2]; 1 μM Stromal cells, 48 h): 111%; Relative LC/MS peak area remaining (human hepatocytes [2]; 1 μM Stromal cells, 72 h): 135%; Relative LC/MS peak area remaining (human hepatocytes [2]; 10 μM Hepatocytes, 1 h): 97%; Relative LC/MS peak area remaining (human hepatocytes [2]; 10 μM Hepatocytes, 2 h): 100%; Relative LC/MS peak area remaining (human hepatocytes [2]; 10 μM Hepatocytes, 4 h): 103%; Relative LC/MS peak area remaining (human hepatocytes [2]; 10 μM Hepatocytes, 8 h): 96%; Relative LC/MS peak area remaining (human hepatocytes [2]; 10 μM Hepatocytes, 24 h): 96%; Relative LC/MS peak area remaining (human hepatocytes [2]; 10 μM Hepatocytes, 48 h): 86%; Relative LC/MS peak area remaining (human hepatocytes [2]; 10 μM Hepatocytes, 72 h): 75%; Relative LC/MS peak area remaining (human hepatocytes [2]; 10 μM Stromal cells, 4 h): 101%; Relative LC/MS peak area remaining (human hepatocytes [2]; 10 μM Stromal cells, 8 h): 106%; Relative LC/MS peak area remaining (human hepatocytes [2]; 10 μM Stromal cells, 24 h): 97%; Relative LC/MS peak area remaining (human hepatocytes [2]; 10 μM Stromal cells, 48 h): 103%; Relative LC/MS peak area remaining (human hepatocytes [2]; 10 μM Stromal cells, 72 h): 115%

Question: Which results are given for [^3H]MDL-100,907?
Answer: Kd (5-HT2A receptors; donor 1 of 3): 0.11 nM; Kd (5-HT2A receptors; donor 2 of 3): 0.08 nM; Kd (5-HT2A receptors; donor 3 of 3): 0.08 nM
